For data set [1] the following is noted: human.
The test system of data set [2] is tumor cell lines.
The subject of data set [3] is PC-3 prostate carcinoma cells. The data set is described as follows: XTT dye binding cytotoxicity assay, PC-3. As to conditions: Homo sapiens, 72 h. Format: cell-based. As for the experimental part:
All cell lines described herein were obtained from the ATCC and maintained in media formulations as recommended by the supplier. The cell lines were tested for mycoplasma contamination prior to incubation at 37° C. in 5% carbon dioxide. Normal human dermal fibroblasts, peripheral blood lymphoblasts and mammary epithelial cells were obtained from Clonogenic Cor., San Diego, Calif. and were maintained under the above incubation conditions in special media provided by the supplier.
Antiproliferative activities of the onium salts were determined using the XTT dye binding assay. Cells were harvested with trypsin/EDTA (Irvine Scientific), washed, resuspended in the appropriate medium, and counted in a hemocytometer using Trypan Blue to determine viability. Then 10^4 cells/well were added to 96 well microtiter plates and incubated for 24 hours before addition of drug at concentrations in the range of 10^-4 to 10^-13 molar by direct addition from DMSO solutions. After 72 hours, XTT binding dye was added and incubation was continued for 4 hours. The inhibition of cell proliferation was quantified using a Molecular Devices Microplate Reader. The absorbance of XTT was measured at […]. The concentration of drug which inhibited growth of cells by 50% was calculated from duplicated determinations.
A general note: Tetrazolium assays rely on reduction of a dye to a coloured formazan, in cell work by metabolically active cells.

In data set [4] the test system is B 16 melanoma. As to conditions: relative to taxol; cited from earlier work.
For data set [5] the following is noted: cited from earlier work.

With `CC(=O)O[C@@]12CO[C@@H]1C[C@H](O)[C@@]1(C)C(=O)[C@H](O)C3=C(C)[C@@H](OC(=O)[C@H](O)[C@@H](NC(=O)OC(C)(C)C)c4ccccc4)C[C@@](O)([C@@H](OC(=O)c4ccccc4)[C@H]21)C3(C)C` [Compound 5, N-debenzoyl-N-tert-butoxycarbonyl-10-deacetyl Taxol, reference compound], in data set [1], the “Plasma Stability % EtAc extractable” value came out at 95%. Besides, the “cytotoxicities higher than taxol or its onium salts” value in data set [2] is reported as roughly 10. Also, in data set [3], the IC50 (as a rule, the concentration needed to halve the response being measured) is 0.46 nM. The “in vivo activity on B 16 melanoma” value in data set [4] is “better in vivo activity on B 16 melanoma”. Further, the recommended dose in data set [5] (every 3 weeks) is reported as 100 mg/m^2. In data set [5] (in vivo), the “dose beyond which alopecia was observed in the majority of patients” value is on record as greater than 70 mg/m^2; the “dose beyond which delayed and cumulative skin reactions occurred” value was greater than 70 mg/m^2.

The record behind these values is patent US5731334A, “Method for treating cancer using taxoid onium salt prodrugs” (priority 1995, dated 1998).
